{"sequences": {"note": "Sequences of proteins named here, by UniProt entry; tags and fusion partners are left off.", "UniProt Q14191, whole entry, looked up": "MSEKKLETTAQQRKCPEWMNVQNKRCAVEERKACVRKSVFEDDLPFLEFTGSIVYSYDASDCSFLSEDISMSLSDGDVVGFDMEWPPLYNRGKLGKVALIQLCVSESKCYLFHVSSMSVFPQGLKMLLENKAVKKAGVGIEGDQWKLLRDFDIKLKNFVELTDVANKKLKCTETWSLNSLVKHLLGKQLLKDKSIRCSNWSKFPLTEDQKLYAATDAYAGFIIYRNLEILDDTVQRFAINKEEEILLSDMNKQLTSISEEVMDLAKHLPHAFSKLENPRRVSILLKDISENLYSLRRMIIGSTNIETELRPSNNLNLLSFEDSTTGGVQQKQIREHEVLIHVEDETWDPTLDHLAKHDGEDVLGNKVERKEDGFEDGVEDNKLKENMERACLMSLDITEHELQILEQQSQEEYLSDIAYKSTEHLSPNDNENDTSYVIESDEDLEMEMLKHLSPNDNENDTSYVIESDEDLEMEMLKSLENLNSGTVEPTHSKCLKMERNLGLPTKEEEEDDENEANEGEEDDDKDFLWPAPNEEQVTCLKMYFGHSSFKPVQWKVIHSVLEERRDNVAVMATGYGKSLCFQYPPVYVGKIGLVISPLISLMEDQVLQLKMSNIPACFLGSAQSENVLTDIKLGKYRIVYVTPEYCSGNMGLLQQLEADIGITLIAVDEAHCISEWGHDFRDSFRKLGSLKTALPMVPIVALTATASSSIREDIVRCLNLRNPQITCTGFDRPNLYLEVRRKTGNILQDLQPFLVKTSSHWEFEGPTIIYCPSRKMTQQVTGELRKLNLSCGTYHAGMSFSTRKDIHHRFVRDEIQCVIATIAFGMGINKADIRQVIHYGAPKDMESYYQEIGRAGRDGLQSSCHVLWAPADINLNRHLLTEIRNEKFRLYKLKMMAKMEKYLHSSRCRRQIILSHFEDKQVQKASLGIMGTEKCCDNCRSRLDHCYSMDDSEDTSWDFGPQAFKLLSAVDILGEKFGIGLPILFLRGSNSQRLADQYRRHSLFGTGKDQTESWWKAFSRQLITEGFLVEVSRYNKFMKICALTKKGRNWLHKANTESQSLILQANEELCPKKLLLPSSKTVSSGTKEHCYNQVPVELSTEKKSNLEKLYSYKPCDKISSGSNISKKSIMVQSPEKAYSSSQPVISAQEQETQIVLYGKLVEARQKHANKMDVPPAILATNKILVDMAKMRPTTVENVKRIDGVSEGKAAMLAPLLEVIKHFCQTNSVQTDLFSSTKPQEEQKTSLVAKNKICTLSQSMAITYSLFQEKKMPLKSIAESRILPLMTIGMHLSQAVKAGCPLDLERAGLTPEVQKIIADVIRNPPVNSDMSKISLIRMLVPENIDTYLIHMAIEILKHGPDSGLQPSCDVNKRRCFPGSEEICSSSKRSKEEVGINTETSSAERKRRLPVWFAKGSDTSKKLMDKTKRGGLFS"}, "source": "PubChem BioAssay AID651768", "about": "(National Center for Advancing Translational Sciences (NCATS), 2012)", "note": "About 1,700 (0.47%) of roughly 360,000 compounds were called active. All entries are inconclusive by the source's own rule. Clear calls are listed elsewhere. Calls come from the whole dose curve; as a rule, active = well fitted inhibition curve with a large enough effect; inconclusive = small, poorly fitted or top-dose-only effect; inactive = no such curve, though single readings can be large or run the other way. Potency is the fitted concentration of half-maximal effect.", "data": [{"biological_target": "Bifunctional 3'-5' exonuclease/ATP-dependent helicase WRN (Homo sapiens) (UniProt Q14191)", "experiment": "qHTS for Inhibitors of WRN Helicase; note: nearly all actives have a fitted effect of over 55% in size", "conditions": "WRN helicase unwinding, fluorescent forked duplex, kinetic", "excerpt": "Inhibition of DNA repair is proposed as a strategy for combating cancer. Synthetic lethality is an approach that exploits preexisting DNA repair deficiencies in certain tumors to develop inhibitors of DNA repair pathways that compensate for the tumor-associated DNA repair deficiency. Because helicases play critical roles in the DNA damage response and in DNA repair, particularly in actively dividing and replicating cells, characterization of synthetic lethal relationships of DNA helicases may be of value in developing improved anticancer treatment strategies; moreover, small molecules that specifically target a given DNA helicase may be useful for understanding its role in cellular nucleic acid metabolism. The goal of this project is to identify small molecule, non-covalent chemical inhibitors of the Werner syndrome (WS) helicase (WRN), which plays an important role in cell proliferation, the replication stress response, and DNA repair. […] The WRN gene product that is defective in the chromosomal instability disorder has DNA helicase and exonuclease activities and interacts with a number of nuclear proteins to maintain genomic stability. We will employ an optimized high-throughput screening assay that utilizes a fluorescence intensity modulation scheme with a fluorophore and quencher positioned near one another within a duplex deoxyoligonucleotide that contains a single forked structure. After a high-throughput screen of the ~350,000-member Molecular Libraries Small Molecule Repository (MLSMR) collection, followed by data analysis and hit selection, a panel of confirmatory, as well as secondary and ternary, assays will be employed to identify high-confidence WRN inhibitors. Structure-activity relationships will be investigated for the top candidate inhibitor series through medchem expansion. These are the results of the primary screening campaign against the MLSMR. NIH Chemical Genomics Center [NCGC] NIH Molecular Libraries Probe Centers Network [MLPCN] MLPCN Grant: MH096530 Assay Submitter (PI): Robert Brosh, National Institute of Aging\nThree muL of reagents (buffer in columns 3 and 4 as negative controls; WRN at 20 nM final concentration in columns 1 and 2 as positive controls; columns 5-48 as test reactions) will be dispensed into a 1536-well Greiner black plate via solenoid-valve based nanoliter dispensers. Compounds (23 nL each in columns 5-48) and control (23 nL each in column 2 as dose-response) will be transferred via a Kalypsys pintool equipped with a 1536-pin array. Plates will be incubated for 15 min at room temperature, and then 1 µL of substrate (100 nM forked duplex oligonucleotide and 2 mM ATP final concentrations) will be added to start reaction, and plate will be transferred into a ViewLux high-throughput CCD imager where reaction progress is measured in kinetic mode using standard red-fluorescence optics (excitation filter 525 nm, emission filter 598 nm).", "values": [{"smiles": "O=C(/C=C/c1ccccc1)OC1CN2CCC1CC2", "note": "(stereo not given)", "Potency": "inconclusive: 39.8 µM"}, {"smiles": "O=[N+]([O-])c1ccc(-c2cc([N+](=O)[O-])c(O)c([N+](=O)[O-])c2)cc1", "Potency": "inconclusive: 3.16 µM"}, {"smiles": "O=C(NC(Sc1ccncn1)C(Cl)(Cl)Cl)c1ccccc1", "note": "(stereo not given)", "Potency": "inconclusive: 11.2 µM"}, {"smiles": "N#C/C(=C\\c1ccc(N(CCBr)CCBr)cc1)C(N)=O", "Potency": "inconclusive: 17.8 µM"}, {"smiles": "O=c1c2cc([N+](=O)[O-])ccc2[nH]c2c([N+](=O)[O-])cc([N+](=O)[O-])cc12", "Potency": "inconclusive: 63.1 µM"}]}]}
